Ab-91 heavy chain CDR variants: yeast mating affinities

Reference: Engelhart et al. 2022, doi:10.1038/s41597-022-01779-4. File: FLAb, binding data.

Target: peptide PDVDLGDISGINAS, taken from heptad repeat 2 (HR2) of SARS-CoV-2 spike.

Parent scFv Ab-91: VL joined to VH by a (GGGGS)3 linker. Changes lie in the heavy chain CDRs alone.
VL: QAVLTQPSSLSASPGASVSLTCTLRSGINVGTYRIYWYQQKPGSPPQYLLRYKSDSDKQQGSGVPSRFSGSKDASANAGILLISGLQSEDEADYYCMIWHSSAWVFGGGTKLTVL
VH: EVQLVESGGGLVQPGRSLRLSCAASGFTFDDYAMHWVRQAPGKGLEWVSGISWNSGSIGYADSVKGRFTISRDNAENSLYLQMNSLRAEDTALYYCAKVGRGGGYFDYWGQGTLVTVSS

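The parent was found by panning a naive human phage display library on the peptide. Variants in AAYL51 differ from the parent at up to three CDR positions; double and triple changes were sampled at random. The assay is AlphaSeq: two haploid yeast populations carry antibody and antigen on their surface. Pairs that bind mate more often; barcode pairs of the diploids are counted by sequencing. Read counts were normalised to the haploid input and turned into Kd by a linear fit to BCL2-family pairs of known affinity, for each replicate. Mating was done three times.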

Positions count from residue 1 of the parent VH; N54H puts H in place of N.
Every variant below is changed at S57 of the VH (sequential numbering).
Values are log10 of the apparent Kd in nM; lower means stronger binding.
The mean shown is taken over the replicates in which the pair was detected.
"nd" marks a missing value. The strain was present, yet no cells mated with the target were sequenced in that replicate, which points to weak or no binding.

Variant N54H S57H F106E gave nd, nd, nd (controls 2 of 9). Variant S57M G103C D107L gave nd, 4.97, nd (controls 1 of 9). Variant S57H D62S gave nd, nd, nd (controls 1 of 9). For F27I A33T S57N, the assay gave nd, nd, 4.82 (controls 1 of 9). Variant G56I S57K R101D showed 4.37, 4.63, 5.57 (mean 4.86; controls 7 of 9).

Variant S57Q G59V V64T gave 4.85, nd, nd (controls 3 of 9). With W53Q S57N the result was 3.14, nd, nd (controls 1 of 9). With S57P S63W F106D the result was 4.70, 5.69, nd (mean 5.20; controls 8 of 9). Variant S57M G102I G104S gave 3.92, nd, nd (controls 0 of 9). Variant G56F S57M G102Y gave nd, nd, nd (controls 1 of 9).

With M34V S57D F106G the result was nd, nd, nd (controls 1 of 9). Variant A33I G56D S57I showed 4.77, 4.03, 5.81 (mean 4.87; controls 5 of 9). Variant S57I A61H Y108S gave nd, nd, nd (controls 0 of 9). For T28H F29H S57Q, the assay gave 4.09, 4.49, nd (mean 4.29; controls 1 of 9). With F29C S57M I58F the result was 4.68, nd, nd (controls 1 of 9).

For A33F S57C K65T, the assay gave nd, nd, nd (controls 0 of 9). Variant F29V D31V S57E showed nd, 2.72, nd (controls 0 of 9). Variant H35K S57N G103E gave nd, nd, nd (controls 0 of 9). With D31Y A33P S57T the result was 2.78, 3.80, 2.89 (mean 3.16; controls 0 of 9). Variant I51G S57M A61P gave nd, nd, nd (controls 0 of 9).

Variant H35W S57N I58Q showed nd, nd, nd (controls 0 of 9). With S52G S57E G103K the result was 3.64, 4.08, 4.86 (mean 4.20; controls 3 of 9). Variant S57N A61N V99W gave 4.17, 5.01, nd (mean 4.59; controls 4 of 9). For F27N S57K G104N, the assay gave 5.10, nd, nd (controls 3 of 9). Variant S57I G100T showed nd, 6.24, 4.58 (mean 5.41; controls 6 of 9).

With M34I S57V G59A the result was 3.03, nd, nd (controls 1 of 9). Variant F27Q S57Q Y108N showed 2.33, nd, nd (controls 0 of 9). With F27D S57A G102A the result was nd, nd, nd (controls 1 of 9). With G50K S57G the result was nd, 5.18, 5.11 (mean 5.14; controls 4 of 9). With M34L S57K Y108L the result was nd, 3.92, nd (controls 1 of 9).

Variant T28F S57Y V99K gave nd, nd, nd (controls 1 of 9). With S57K G59R G102Y the result was 6.34, 6.07, 3.68 (mean 5.36; controls 2 of 9).

Extract of 2 entries:

With T28H F29H S57Q the result was 4.09, 4.49, nd (mean 4.29; controls 1 of 9).
With S57N A61N V99W the result was 4.17, 5.01, nd (mean 4.59; controls 4 of 9).

Parent in this assay: reference entry 1.86, copy in this library 0.88.
Empty control strains, which show no peptide, gave a signal in 21% of pairings with library AAYL51; the median was 4.54 and 95% of these signals were weaker than 3.26. No background was subtracted. Also given: how often the same scFv was detected with the empty control strains.